{
  "source": "published antibiotic growth screens (doi:10.1038/s41589-023-01349-8)",
  "note": "The list shows a part of the results.",
  "data": [
    {"test_system": "A. baumannii ATCC 17978", "assay": "relative growth (fraction of control); higher = less inhibition", "settings": "50 µM", "values": [
      {"molecule": "COC(=O)C[C@H]1CC[C@@H]2[C@H](COC[C@H](O)CN2S(=O)(=O)c2ccccc2C)O1", "relative growth": 1.06},
      {"molecule": "C[C@H]1CN([C@@H](C)CO)C(=O)Cc2cc(NC(=O)Nc3cccc4c3CCCC4)ccc2O[C@H]1CN(C)S(=O)(=O)c1ccc(Cl)cc1", "relative growth": 1.04},
      {"molecule": "COCC#Cc1ccc2c(c1)O[C@@H](CN(C)Cc1ccc(F)cc1)[C@@H](C)CN([C@H](C)CO)S2(=O)=O", "relative growth": 0.705},
      {"molecule": "C[C@]12CCC(=O)C=C1CCC1C2C(=O)C[C@@]2(C)C1CC[C@]2(O)C(=O)CO", "note": "(stereo not given in full)", "relative growth": 0.942},
      {"molecule": "CNc1[nH]cnc(=S)c1N", "relative growth": 0.883},
      {"molecule": "CCCN1C[C@H](C)[C@H](OC)CN(C)C(=O)c2cc(NS(=O)(=O)c3cn(C)cn3)ccc2OC[C@H]1C", "relative growth": 1.02},
      {"molecule": "CC=CC(=O)N(CC)c1ccccc1C", "note": "(mixture of isomers)", "relative growth": 0.971},
      {"molecule": "COCCNC(=O)C[C@@H]1CC[C@H](NS(=O)(=O)c2ccc(C)cc2)[C@@H](CO)O1", "relative growth": 1.08},
      {"molecule": "CCOc1ccccc1OCCNC(C)Cc1ccc(OC)c(S(N)(=O)=O)c1.Cl", "note": "(stereo not given)", "relative growth": 0.917},
      {"molecule": "C[C@H]1CN([C@@H](C)CO)C(=O)Cc2cc(NC(=O)Nc3cccc4c3CCCC4)ccc2O[C@H]1CN(C)S(=O)(=O)c1ccc(Oc2ccccc2)cc1", "relative growth": 1.11},
      {"molecule": "CC1(C)O[C@@H]2CC3C4CCC5=CC(=O)C=C[C@]5(C)C4[C@@H](O)C[C@]3(C)[C@]2(C(=O)CO)O1", "note": "(stereo not given in full)", "relative growth": 0.881},
      {"molecule": "COC(=O)[C@H]1[C@H]2C[C@@H]3c4[nH]c5cc(OC)ccc5c4CCN3C[C@H]2C[C@@H](OC(=O)c2cc(OC)c(OC)c(OC)c2)[C@@H]1OC", "relative growth": 1.15},
      {"molecule": "Cc1noc(C)c1S(=O)(=O)N(C)C[C@@H]1OCc2cn(nn2)CCCC(=O)N([C@H](C)CO)C[C@H]1C", "relative growth": 0.951},
      {"molecule": "O=C(C[C@@H]1CC[C@@H](NC(=O)c2ccc(F)cc2)[C@H](CO)O1)NCc1ccncn1", "relative growth": 0.848},
      {"molecule": "C[C@]1(C(=O)NCC(F)(F)F)c2ccccc2C(=O)N(Cc2cc(F)cc(C(F)(F)F)c2)[C@H]1c1ccc(CO)cc1", "relative growth": 0.918},
      {"molecule": "C[C@@H]1CN([C@@H](C)CO)S(=O)(=O)c2ccc(C#CC3(O)CCCC3)cc2O[C@@H]1CN(C)C(=O)c1cccnc1", "relative growth": 1.05},
      {"molecule": "CCOC(=O)Cc1csc(/C(=N/O)C(N)=O)n1", "relative growth": 1.1},
      {"molecule": "CN1CCN(C(=O)C[C@@H]2CC[C@@H]3[C@H](COC[C@H](O)CN3C(=O)Nc3ccc4c(c3)OCO4)O2)CC1", "relative growth": 0.999},
      {"molecule": "CO[C@@H](CN(C)C(=O)c1ccc2c(c1)OCO2)[C@@H](C)CN([C@H](C)CO)S(=O)(=O)c1ccc(F)cc1", "relative growth": 0.755},
      {"molecule": "CC(=O)N(C)C[C@@H]1Oc2ncc(C#C[C@H](C)O)cc2C(=O)N([C@H](C)CO)C[C@H]1C", "relative growth": 0.846}
    ]}
  ]
}
